Measured values: PMC12678819, “Targeting bacterial kinases as a strategy to counteract antibiotic resistance” (2025)
Where “and” joins values, the source holds several entries; their conditions need not be identical. Identical values can stand only once.

Chains of the proteins cited; added tags and fusions are not shown. Residues count along the entry.
UniProt P22830, 55-423 limits assumed: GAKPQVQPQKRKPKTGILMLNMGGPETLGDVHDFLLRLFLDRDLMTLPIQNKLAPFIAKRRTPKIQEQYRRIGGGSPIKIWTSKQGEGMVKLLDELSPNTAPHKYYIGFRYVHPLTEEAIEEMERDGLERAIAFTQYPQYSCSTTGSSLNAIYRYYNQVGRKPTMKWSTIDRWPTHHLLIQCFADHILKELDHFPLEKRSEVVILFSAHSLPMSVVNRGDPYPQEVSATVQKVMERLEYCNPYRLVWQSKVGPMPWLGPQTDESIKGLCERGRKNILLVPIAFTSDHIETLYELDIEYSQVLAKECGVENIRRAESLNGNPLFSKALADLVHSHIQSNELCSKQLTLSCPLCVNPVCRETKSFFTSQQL
UniProt Q00532, 4-287 limits assumed: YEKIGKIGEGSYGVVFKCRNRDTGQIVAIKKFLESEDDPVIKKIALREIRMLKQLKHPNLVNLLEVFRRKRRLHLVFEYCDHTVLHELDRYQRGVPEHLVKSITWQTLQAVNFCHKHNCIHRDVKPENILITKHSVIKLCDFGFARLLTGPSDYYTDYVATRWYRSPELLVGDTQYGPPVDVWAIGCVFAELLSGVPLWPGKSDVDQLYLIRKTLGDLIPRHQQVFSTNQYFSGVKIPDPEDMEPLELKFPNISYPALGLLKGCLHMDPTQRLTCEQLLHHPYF
UniProt P53779, 39-402 limits assumed: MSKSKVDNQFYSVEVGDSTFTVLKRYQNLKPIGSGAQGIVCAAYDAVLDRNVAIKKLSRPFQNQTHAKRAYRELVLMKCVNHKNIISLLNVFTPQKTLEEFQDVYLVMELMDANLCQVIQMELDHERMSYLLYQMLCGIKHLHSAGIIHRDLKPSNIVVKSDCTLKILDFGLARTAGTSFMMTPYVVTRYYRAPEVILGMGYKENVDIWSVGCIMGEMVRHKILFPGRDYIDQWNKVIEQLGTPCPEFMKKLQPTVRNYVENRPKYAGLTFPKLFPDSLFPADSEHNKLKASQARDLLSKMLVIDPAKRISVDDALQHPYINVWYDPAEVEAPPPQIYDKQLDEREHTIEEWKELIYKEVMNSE

What was measured:
[1] = Plasma stability assay, mouse; details: 1 μg∙mL-1
[2] = Plasma stability assay, human; details: 1 μg∙mL-1
[3] = Plasma protein binding, mouse; details: for PPB mouse (%): mean; for PPB mouse, single replicate: maus, raw data of Table 3
[4] = Plasma protein binding, human; details: for PPB human (%): mean; for PPB human, single replicate: raw data of Table 3
[5] = Metabolic stability assay, mouse microsomes
[6] = Metabolic stability assay, human microsomes
FECH [7] = target: T1, FECH (Homo sapiens, UniProt P22830); details: reference compound, quantity not specified; cited from earlier work
FECH [8] = target: T1, FECH; test: DSF kinase panel; details: 10 μM
CDKL1 = CDKL1 (Homo sapiens, UniProt Q00532); test: DSF kinase panel; details: 10 μM
JNK3 = JNK3 (Homo sapiens, UniProt P53779); test: DSF kinase panel; details: 10 μM
[9] = cited from earlier work

Compound	t1/2 mouse plasma [1] [h]	t1/2 human plasma [2] [h]	PPB mouse (%) [3] [%]	PPB human (%) [4]	PPB human, single replicate [4]	t1/2 mouse microsomes [5] [h]	t1/2 human microsomes [6] [h]	PPB mouse, single replicate [3]	Reference (FECH [7]) [nM]	ΔTm FECH (FECH [8]) [°C]	PPB mouse (%) ([3]; listed as 14 g)	PPB human (%) ([4]; listed as 14 g)	ΔTm CDKL1 (CDKL1) [°C]	ΔTm JNK3 (JNK3) [°C]	plasma protein binding [9] [%]
OCCn1cc(-c2c(Cl)cnc3[nH]ccc23)nn1	2.758	>4	72.0 ± 18.0	88.7 ± 3.7%	86.3% and 86.9% and 92.9%	>1	>1	–	–	–	–	–	–	–	–
Cc1cc(-c2c(Cl)cnc3[nH]ccc23)[nH]n1	3.002	4.18	84.2 ± 9.6	–	95.8% and 90.9% and 97.6%	>1	>1	94.9% and 76.2% and 81.5%	–	–	–	–	–	–	–
COc1ccc(CNC(=O)Cn2cc(-c3c(Cl)cnc4[nH]ccc34)nn2)cc1	2.128	>4	81.1 ± 10.4	95.4 ± 0.9%	96.4% and 94.9% and 94.7%	>1	>1	91.3% and 70.5% and 81.4%	–	–	–	–	–	–	–
O=C(Cn1cc(-c2c(Cl)cnc3[nH]ccc23)nn1)NCc1ccccc1	2.44	>4	82.0 ± 17.7	95.2 ± 4.5%	90.1% and 96.8% and 98.7%	>1	>1	–	–	–	–	–	–	–	–
CCCS(=O)(=O)Nc1ccc(F)c(C(=O)c2c[nH]c3ncc(-c4ccc(Cl)cc4)cc23)c1F	–	–	–	–	–	–	–	–	1000	5.5	–	–	–	–	–
Clc1cnc2[nH]ccc2c1-c1cn(-c2cccnc2)nn1	2.225	>4	81.6 ± 8.2	89.9 ± 8.0%	81.0% and 92.5% and 96.3%	>1	>1	88.4% and 72.6% and 84.0%	–	–	–	–	–	–	–
Clc1cnc2[nH]ccc2c1-c1c[nH]nn1	2.93	>4	77.9 ± 13.6	98.9 ± 0.5%	99.3% and 98.4% and 99.1%	1.254	>1	–	–	–	–	–	–	–	–
Fc1ccc(-n2cc(-c3c(Cl)cnc4[nH]ccc34)nn2)cc1	2.058	<0.083	97.3 ± 0.8	97.2 ± 1.8%	95.8% and 99.2% and 96.5%	>1	>1	97.0% and 98.2% and 96.7%	–	–	–	–	–	–	–
Clc1cnc2[nH]ccc2c1-c1cn(Cc2ccccc2)nn1	2.238	>4	99.6 ± 0.6	98.0%	96.1% and 99.3% and 98.7%	>1	>1	98.9%	–	–	–	–	–	–	–
Fc1cccc(-n2cc(-c3c(Cl)cnc4[nH]ccc34)nn2)c1	1.93	>4	98.7 ± 0.6	99.2 ± 0.4% and 99.2%	98.7% and 99.5% and 99.2%	0.0438	0.0293	99.4% and 98.2% and 98.5%	–	–	–	–	–	–	–
Cc1ccc(-n2cc(-c3c(Cl)cnc4[nH]ccc34)nn2)cc1	1.91	4.017	99.5	99.4%	98.8% and 99.9% and 99.4%	0.322	0.322	99.6% and 99.4% and 99.5%	–	–	99.5 ± 0.1	99.4 ± 0.5	–	–	–
COc1cc2ncnc(Oc3cccc(NC(=O)Nc4cc(C(C)(C)C(F)(F)F)on4)c3)c2cc1OC	–	–	–	–	–	–	–	–	–	–	–	–	6.6	8.8	–
CC(C)(C)C(=O)OCn1cc(-c2c(Cl)cnc3[nH]ccc23)nn1	<0.083	1.33	–	–	–	0.674	0.0487	–	–	–	–	–	–	–	–
dalbavancin	–	–	–	–	–	–	–	–	–	–	–	–	–	–	> 99
